The values below come from patent US12583873B2, “Amino acid mineral complex having immunopotentiating activity and composition for foods, pharmaceuticals, or feeds comprising same” (priority 2018, dated 2026).

For the series the following is noted: pig, in vivo.

For “zinc-aspartic acid complex [Example 1-1]”, the Zinc stood at 158b μg/dL; the “Zinc content in blood as compared to CON 1 and CON 2” value is reported as “increased significantly”.
Take “zinc-aspartic acid complex [Comparative Example 3]”: the Zinc is listed as 180ab μg/dL; the “Zinc content in blood as compared to CON 1 and CON 2” value is “increased significantly”.
